The values that follow come from publication PMC4562733 (International Journal of Nanomedicine, 2015).

One data set deals with MCF-7 tumors. In words: In vivo antitumor activity. On the set-up: species or system nude mice. The following applies: MCF-7-bearing mice. Summed up:
(§1)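 Tumor cells implanted in the upper right axillary fossa of nude mice; treatment began when tumors reached 0.2–0.5 cm diameter. Mice were randomized to four groups (n=5): PBS pH 7.4 control, free paclitaxel, or test conjugates, each at 5 mg/kg in 0.2 mL. Dosing was by tail vein every 3 days, five injections over 15 days. Tumor volume and body weight were recorded daily; values are mean ± SD.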

Another data set concerns normal (Kunming) mice. In words: Acute toxicity. The following applies: 80 to 320 mg/kg, tail vein, n=10 per group.
A short description of data set [1]: Release of free PTX in human plasma, HPLC. The data set is classed as in vitro ADME. The following applies: 37°C, 4 hours. Summed up:
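Test conjugate was dissolved at 5 mg per 2.5 mL in PBS pH 7.4 or human plasma and held at 37°C for up to 12 hours. Aliquots were drawn at set times and free PTX was extracted into ethyl acetate. Free PTX was quantified by reverse-phase C18 HPLC at 1 mL per minute and 30°C, with UV detection at 227 nm.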

The next data set concerns A549 tumors. Briefly: In vivo antitumor activity. On the set-up: species or system nude mice. The following applies: A549-bearing mice. The gist of the method: as §1

For the substance “folic acid-fluorescein-5(6)-isothiocyanate-arginine-paclitaxel [FA-FITC-Arg-PTX]”, the “body weight change during treatment” value in the data set with MCF-7 tumors is on record as “gradual increase”. Moreover, in the data set with normal (Kunming) mice, the survival rate entry is on record as “maintained their original survival rates”. In addition, the “free PTX released” value in data set [1] came out at 56.72%. The “decrease of body weight, of original weight” value in the data set with A549 tumors is “about 2%”.
